# Antibody variant affinities, Ab-95 light chain, assay 2

Reference: Engelhart et al. 2022, doi:10.1038/s41597-022-01779-4. File: FLAb, binding data.

Antigen: PDVDLGDISGINAS, a 14-residue peptide of the SARS-CoV-2 spike HR2 region.

The variants keep the heavy chain, the linker and the frameworks of Ab-95 (scFv order VH, three GGGGS repeats, VL).
VH: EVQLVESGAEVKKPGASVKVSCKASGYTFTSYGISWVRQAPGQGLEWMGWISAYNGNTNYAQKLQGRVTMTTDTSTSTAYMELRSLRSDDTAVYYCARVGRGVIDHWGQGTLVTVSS
VL: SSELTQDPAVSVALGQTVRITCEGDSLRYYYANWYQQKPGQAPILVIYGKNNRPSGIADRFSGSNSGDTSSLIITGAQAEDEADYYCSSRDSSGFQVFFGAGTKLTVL

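AAYL52 was designed without a model: most single CDR substitutions and a random sample of double and triple ones. Affinity was read by AlphaSeq, a pooled yeast mating assay with surface-displayed partners. After mating in shaken culture at 30 °C for 16 h, diploids were selected and their barcode pairs sequenced. The ratio of observed to expected reads was calibrated, replicate by replicate, on BCL2-family standards whose Kd was known from biolayer interferometry. Each pool was mated in three replicate cultures.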

The parent's light chain CDRs are EGDSLRYYYAN, GKNNRPS, SSRDSSGFQVF; each variant's own CDRs replace them letter for letter.
Numbers give log10(Kd / nM), so 0 is 1 nM and 3 is 1 µM. Smaller is tighter.
A mean of the replicates is given; it leaves out those without a signal.
An entry "nd" has no value in the source: the pair was not observed among the diploids in any replicate. This suggests poor binding but is not conclusive.

CDR-L1	CDR-L2	CDR-L3	log10 Kd (nM), mean	seen in
EGDTLRYYYAN	RKNNRPS	SFRDSSGFQVF	3.09	2/3
EGASLRYYYAN	GKNYRGS	SSRDSSGFQVF	2.92	3/3
EHDSLRYYYAN	GKPNRPS	SSSDSSGFQVF	4.40	1/3
EGDLLRYYYAN	GKNNRPS	SSRDSSGYMVF	nd	0/3
EGDSLRVYKAN	GKNNRPS	RSRDSSGFQVF	2.85	2/3
KGDSLRYYYAN	GKNNNPL	SSRDSSGFQVF	3.84	1/3
EGDSLRFYYAN	GKDNRPS	SSRDSSYFQVF	3.14	2/3
WGDSLRYYYAN	GKNNRPS	SSRDSSCFQNF	3.13	3/3
ENDSLRYYYAN	GKNNRPS	VSYDSSGFQVF	nd	0/3
EGDSLRYYYIN	GKNNRPS	SRRDSSGFQVS	nd	0/3
AMDSLRYYYAN	GKNNRPS	SSRDSSGLQVF	3.33	3/3
EGDSCRYYYAN	GKNERMS	SSRDSSGFQVF	3.70	3/3
QGDSLKYYYAN	GKNNRPS	SSRDSSMFQVF	3.05	3/3
REDSLRYYYAN	GKNNRPS	SSRDSSGFQKF	2.96	1/3
EGDSERYYYAN	GKNVRRS	SSRDSSGFQVF	3.69	1/3
EGDSLRYYYAN	GKNHRPS	SSRASSGDQVF	2.99	3/3
EGDPLRGYYEN	GKNNRPS	SSRDSSGFQVF	2.86	3/3
EGDSLRYYYAN	GKNNHPW	SSRDTSGFQVF	3.23	2/3
EGDSLRYYYAN	QKNNRPS	VSRDSSGFQVF	5.13	3/3
QWDSLRYYYAN	LKNNRPS	SSRDSSGFQVF	nd	0/3
EGDSLRYYYAN	GKNPRES	SSRDSSIFQVF	nd	0/3
EGLSLRYYVAN	GKNNRPS	SSRDSSEFQVF	nd	0/3
EGPSLRCYYAN	GKNNRQS	SSRDSSGFQVF	2.27	3/3
EGDSWGYYYAN	GKNNRPS	SSRDSSGFQVF	4.16	1/3
EGDSLRGYYAN	GKNNRPS	SSRDISGFQVL	1.36	3/3
EGDSLRYYYAN	GKSNRPS	SSTDSSCFQVF	2.24	2/3
ECDSLRYYYAN	GKNNRPS	SSRDDSGFQWF	4.51	1/3
EWDSHRYYYAN	GKPNRPS	SSRDSSGFQVF	4.63	3/3
EGDSLRYYYWN	GKNNRPS	SSRSSRGFQVF	4.77	2/3
EGDSLRYYYFN	GKNGRPS	SSRDRSGFQVF	4.55	1/3
EGDQERYYMAN	GKNNRPS	SSRDSSGFQVF	nd	0/3
EGDSLRYYYAA	GKFNRPR	SSRDSSGFQVF	nd	0/3
EGDSLRYYYAN	GYNNRPS	SSGDSSCFQVF	nd	0/3
EKDSLRYYYAN	GKNNRMS	SSQDSSGFQVF	4.19	1/3
EGDSLRYYRAN	GKNNRPW	SSRDSSGFQVS	3.36	3/3
EGDSLRYYYAN	GKNNRPS	RSRDSSQFQVF	3.51	2/3
EGDSLRYYYAN	GKNNRPS	SSRDCTDFQVF	2.03	3/3
EGDDLRYYYAN	GKNNRPS	SSRGSSGFQVY	2.71	3/3
EGDSERYYYAN	GKNNRPS	SSRDKSGCQVF	3.87	1/3
EGDSLRYYYAN	GHNDRPS	WSRDSSGFQVF	2.64	3/3
EGDSLRYYYAN	IHNNRPS	SSRDSSGFQVR	4.48	3/3
PGDSLRYYYHN	GKNNRPS	SSRDSSKFQVF	5.12	1/3
EGDSYRYYYAN	GWNNRPS	SSRDSSGPQVF	2.97	1/3
MGDSLRYYYAD	GKNNRPS	SSRDSSGFQVE	nd	0/3
EGRSARYYYAN	QKNNRPS	SSRDSSGFQVF	4.51	1/3
MPDSLRYYYAN	GKNNRPS	SSRDSSGWQVF	nd	0/3
EGDSLRYYYAN	GVNNRPS	SSRDSSMFKVF	4.55	2/3
EGDSNRYYYAN	GLNNRPS	SSRDSSGNQVF	3.31	1/3
EGQSLRYYQAN	GKNNRPS	SSRDSSGFQLF	1.58	3/3
EGDQLRYYTAN	GKNNRPS	SSRDSSGKQVF	3.11	1/3
EGMSLRYYYCN	GKNNRPS	STRDSSGFQVF	nd	0/3
EMDSLRYYYAN	GKNNRWS	SSVDSSGFQVF	3.77	2/3
EGDSLRYYYAN	QKNNRPS	SVRDSEGFQVF	4.31	1/3
EGDSLRYYYAN	TKNNRPS	SSRDVSNFQVF	2.95	2/3
EGDSQRYYYAN	GKNNRPS	SSRDASGFQVF	2.87	3/3
EGDSLRYYKAN	GCNNRPY	SSRDSSGFQVF	2.20	3/3
EGDQLRYKHAN	GKNNRPS	SSRDSSGFQVF	2.52	3/3
EGDSHRYYYAN	GKNNRPS	SSRDSSGFYVF	2.92	1/3
EGDSLRYRYAN	GSNNRPS	SSRDSSAFQVF	1.97	3/3
EGDSGRSYYAN	HKNNRPS	SSRDSSGFQVF	3.32	3/3
EGDSLVYYYAN	GDNNRPS	SSRDSSGFEVF	3.94	2/3

Parent in this assay: reference entry 2.31, copy in this library 2.25.
Empty control strains, which show no peptide, gave a signal in 28% of pairings with library AAYL52; the median was 3.91 and 95% of these signals were weaker than 2.90. No background was subtracted.